From ChEMBL document CHEMBL3714709, “T1R hetero-oligomeric taste receptors, cell lines that express said receptors, and taste compounds” (2008)

Chains of the proteins cited; added tags and fusions are not shown. Lines headed by an entry give the natural chain unless they say otherwise; changes in a name come on top.
UniProt Q7RTX0: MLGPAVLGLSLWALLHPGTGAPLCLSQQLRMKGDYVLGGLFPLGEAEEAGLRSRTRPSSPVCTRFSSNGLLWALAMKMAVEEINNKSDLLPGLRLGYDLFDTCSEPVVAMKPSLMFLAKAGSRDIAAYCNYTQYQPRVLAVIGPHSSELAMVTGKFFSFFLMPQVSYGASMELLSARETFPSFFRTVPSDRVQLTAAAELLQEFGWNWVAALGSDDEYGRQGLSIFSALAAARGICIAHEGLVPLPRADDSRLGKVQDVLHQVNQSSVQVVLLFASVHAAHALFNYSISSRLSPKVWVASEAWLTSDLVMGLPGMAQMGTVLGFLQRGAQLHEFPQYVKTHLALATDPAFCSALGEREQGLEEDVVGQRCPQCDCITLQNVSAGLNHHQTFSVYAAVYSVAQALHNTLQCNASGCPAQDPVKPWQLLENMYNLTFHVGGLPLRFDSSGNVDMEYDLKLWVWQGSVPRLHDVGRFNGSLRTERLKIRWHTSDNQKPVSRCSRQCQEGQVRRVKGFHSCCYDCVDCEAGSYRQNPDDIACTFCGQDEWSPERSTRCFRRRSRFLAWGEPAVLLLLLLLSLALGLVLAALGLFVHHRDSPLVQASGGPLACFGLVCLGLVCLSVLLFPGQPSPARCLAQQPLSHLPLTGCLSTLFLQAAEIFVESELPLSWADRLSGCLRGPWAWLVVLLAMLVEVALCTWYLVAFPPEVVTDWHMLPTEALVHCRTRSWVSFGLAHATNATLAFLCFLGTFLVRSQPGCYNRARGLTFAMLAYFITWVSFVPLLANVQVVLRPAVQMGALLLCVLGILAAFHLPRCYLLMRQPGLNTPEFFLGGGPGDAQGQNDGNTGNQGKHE
UniProt Q7RTX1: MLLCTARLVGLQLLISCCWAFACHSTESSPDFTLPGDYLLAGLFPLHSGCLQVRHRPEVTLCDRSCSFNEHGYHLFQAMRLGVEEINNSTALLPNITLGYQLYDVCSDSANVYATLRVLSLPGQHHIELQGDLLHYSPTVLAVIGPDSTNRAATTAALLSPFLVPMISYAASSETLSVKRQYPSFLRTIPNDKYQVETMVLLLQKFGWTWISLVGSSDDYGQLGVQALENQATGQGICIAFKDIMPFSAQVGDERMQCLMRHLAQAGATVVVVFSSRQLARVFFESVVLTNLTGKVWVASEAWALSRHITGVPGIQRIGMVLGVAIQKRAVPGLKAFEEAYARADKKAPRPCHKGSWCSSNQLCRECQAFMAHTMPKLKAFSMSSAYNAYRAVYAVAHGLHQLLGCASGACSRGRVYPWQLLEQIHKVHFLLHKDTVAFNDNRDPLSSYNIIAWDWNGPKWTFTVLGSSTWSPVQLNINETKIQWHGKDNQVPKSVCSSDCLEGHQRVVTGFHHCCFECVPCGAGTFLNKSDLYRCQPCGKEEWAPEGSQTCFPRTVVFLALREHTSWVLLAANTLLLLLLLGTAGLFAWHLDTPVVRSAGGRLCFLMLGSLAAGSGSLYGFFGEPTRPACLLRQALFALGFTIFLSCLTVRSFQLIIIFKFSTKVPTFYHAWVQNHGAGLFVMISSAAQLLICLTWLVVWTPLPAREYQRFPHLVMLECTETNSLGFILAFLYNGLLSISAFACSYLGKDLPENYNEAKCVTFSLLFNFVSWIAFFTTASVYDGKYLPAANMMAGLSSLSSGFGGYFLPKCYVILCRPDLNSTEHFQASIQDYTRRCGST

Target: T1R1/T1R3 (Homo sapiens) (UniProt Q7RTX0+Q7RTX1)
Assay: Activation of human T1R1/T1R3
Assay type: protein-complex assay

Activity: inactive
SMILES: COC(=O)[C@H](Cc1ccccc1)NC(=O)[C@@H](N)CC(=O)O

Active and inactive are the calls of the source. The calls are words filed in the database; no cut-off is given here.
